Source: PMC4950319, “Kinetic and structural characterization of amyloid‐β peptide hydrolysis by human angiotensin‐1‐converting enzyme” (The Febs Journal, 2016)

The chains behind the UniProt entries cited, without tags or fusion partners. Residues count along the entry.
UniProt P12821, 30-658: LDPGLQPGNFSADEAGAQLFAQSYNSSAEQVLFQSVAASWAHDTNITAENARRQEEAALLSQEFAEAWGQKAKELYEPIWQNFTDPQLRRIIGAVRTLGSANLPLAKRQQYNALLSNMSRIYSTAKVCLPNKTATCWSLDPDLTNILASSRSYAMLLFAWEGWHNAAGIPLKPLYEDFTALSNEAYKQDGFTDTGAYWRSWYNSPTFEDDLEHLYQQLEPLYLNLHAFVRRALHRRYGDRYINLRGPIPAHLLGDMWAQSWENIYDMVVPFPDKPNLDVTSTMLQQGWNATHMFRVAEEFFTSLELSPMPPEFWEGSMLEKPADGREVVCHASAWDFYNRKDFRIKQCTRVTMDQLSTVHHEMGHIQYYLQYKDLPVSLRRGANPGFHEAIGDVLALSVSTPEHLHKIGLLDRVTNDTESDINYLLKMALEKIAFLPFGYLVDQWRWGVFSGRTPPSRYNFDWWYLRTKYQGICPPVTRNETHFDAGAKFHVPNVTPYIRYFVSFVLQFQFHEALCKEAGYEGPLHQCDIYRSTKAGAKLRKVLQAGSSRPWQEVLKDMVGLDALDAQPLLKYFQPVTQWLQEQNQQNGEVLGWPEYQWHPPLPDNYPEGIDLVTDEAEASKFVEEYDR
UniProt P12821, 30-1306 H988K/H992K: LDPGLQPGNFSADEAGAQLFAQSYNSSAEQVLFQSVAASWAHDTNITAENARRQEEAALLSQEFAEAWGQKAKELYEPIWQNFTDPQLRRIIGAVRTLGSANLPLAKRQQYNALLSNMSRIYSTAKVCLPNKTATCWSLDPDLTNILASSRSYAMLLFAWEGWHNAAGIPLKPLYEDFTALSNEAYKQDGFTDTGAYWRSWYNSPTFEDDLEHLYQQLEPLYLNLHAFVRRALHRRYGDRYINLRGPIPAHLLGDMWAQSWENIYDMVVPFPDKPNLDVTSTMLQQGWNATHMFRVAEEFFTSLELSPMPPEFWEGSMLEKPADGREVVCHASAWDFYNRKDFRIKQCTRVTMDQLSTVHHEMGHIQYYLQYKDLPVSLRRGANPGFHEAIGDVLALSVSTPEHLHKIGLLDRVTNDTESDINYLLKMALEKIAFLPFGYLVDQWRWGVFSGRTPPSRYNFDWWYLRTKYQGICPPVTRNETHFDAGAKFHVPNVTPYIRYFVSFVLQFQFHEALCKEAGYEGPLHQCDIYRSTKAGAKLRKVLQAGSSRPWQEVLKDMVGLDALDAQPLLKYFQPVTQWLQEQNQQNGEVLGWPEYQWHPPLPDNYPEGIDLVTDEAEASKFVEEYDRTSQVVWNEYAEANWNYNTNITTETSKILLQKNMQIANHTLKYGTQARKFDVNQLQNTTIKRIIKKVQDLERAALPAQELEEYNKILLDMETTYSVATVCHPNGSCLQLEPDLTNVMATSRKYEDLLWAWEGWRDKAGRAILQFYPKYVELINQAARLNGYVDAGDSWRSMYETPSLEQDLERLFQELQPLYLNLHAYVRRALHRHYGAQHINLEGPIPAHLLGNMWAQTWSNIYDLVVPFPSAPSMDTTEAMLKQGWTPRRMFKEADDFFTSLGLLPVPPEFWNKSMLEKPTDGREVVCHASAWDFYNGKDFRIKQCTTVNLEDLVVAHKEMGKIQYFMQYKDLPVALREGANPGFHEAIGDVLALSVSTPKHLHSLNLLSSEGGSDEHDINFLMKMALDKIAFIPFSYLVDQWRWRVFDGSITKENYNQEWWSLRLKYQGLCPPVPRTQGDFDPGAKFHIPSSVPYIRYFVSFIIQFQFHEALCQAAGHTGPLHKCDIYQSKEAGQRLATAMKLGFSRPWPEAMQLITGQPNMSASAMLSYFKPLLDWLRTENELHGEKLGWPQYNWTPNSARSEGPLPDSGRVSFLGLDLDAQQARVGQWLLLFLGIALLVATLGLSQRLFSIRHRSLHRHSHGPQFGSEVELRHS
UniProt P12821, 30-1306 H390K/H394K: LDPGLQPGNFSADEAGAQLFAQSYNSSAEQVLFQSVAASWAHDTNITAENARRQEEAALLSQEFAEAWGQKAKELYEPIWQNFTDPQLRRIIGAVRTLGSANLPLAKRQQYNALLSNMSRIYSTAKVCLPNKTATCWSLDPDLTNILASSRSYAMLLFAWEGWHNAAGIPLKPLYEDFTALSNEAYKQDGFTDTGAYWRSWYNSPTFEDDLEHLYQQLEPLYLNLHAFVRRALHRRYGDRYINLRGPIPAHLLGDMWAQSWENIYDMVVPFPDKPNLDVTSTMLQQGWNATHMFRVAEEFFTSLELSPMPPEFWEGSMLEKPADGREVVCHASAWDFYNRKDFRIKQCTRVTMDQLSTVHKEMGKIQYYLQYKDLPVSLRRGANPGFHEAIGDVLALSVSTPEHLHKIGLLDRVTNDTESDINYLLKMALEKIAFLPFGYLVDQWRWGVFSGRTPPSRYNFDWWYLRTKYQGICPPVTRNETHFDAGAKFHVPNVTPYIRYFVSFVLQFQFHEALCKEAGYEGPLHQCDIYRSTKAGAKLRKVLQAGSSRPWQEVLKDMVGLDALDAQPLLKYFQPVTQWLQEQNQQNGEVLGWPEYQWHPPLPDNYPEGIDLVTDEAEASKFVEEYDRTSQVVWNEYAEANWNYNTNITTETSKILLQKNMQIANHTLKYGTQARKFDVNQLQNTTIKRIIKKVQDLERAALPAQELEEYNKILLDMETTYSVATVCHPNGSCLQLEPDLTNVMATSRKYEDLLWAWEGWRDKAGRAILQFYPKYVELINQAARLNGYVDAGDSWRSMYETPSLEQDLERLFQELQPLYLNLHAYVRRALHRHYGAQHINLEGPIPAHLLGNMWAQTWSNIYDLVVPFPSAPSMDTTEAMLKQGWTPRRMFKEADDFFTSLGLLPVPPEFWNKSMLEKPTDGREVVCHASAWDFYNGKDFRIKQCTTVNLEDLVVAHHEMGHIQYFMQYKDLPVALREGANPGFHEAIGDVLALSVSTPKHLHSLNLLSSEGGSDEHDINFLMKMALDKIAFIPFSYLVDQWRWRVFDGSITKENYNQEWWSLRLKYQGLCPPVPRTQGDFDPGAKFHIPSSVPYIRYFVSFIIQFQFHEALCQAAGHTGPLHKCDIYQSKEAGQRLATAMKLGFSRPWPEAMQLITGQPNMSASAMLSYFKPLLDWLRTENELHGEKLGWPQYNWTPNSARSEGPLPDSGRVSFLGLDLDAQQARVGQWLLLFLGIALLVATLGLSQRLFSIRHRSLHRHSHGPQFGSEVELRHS
UniProt P12821, 30-1306: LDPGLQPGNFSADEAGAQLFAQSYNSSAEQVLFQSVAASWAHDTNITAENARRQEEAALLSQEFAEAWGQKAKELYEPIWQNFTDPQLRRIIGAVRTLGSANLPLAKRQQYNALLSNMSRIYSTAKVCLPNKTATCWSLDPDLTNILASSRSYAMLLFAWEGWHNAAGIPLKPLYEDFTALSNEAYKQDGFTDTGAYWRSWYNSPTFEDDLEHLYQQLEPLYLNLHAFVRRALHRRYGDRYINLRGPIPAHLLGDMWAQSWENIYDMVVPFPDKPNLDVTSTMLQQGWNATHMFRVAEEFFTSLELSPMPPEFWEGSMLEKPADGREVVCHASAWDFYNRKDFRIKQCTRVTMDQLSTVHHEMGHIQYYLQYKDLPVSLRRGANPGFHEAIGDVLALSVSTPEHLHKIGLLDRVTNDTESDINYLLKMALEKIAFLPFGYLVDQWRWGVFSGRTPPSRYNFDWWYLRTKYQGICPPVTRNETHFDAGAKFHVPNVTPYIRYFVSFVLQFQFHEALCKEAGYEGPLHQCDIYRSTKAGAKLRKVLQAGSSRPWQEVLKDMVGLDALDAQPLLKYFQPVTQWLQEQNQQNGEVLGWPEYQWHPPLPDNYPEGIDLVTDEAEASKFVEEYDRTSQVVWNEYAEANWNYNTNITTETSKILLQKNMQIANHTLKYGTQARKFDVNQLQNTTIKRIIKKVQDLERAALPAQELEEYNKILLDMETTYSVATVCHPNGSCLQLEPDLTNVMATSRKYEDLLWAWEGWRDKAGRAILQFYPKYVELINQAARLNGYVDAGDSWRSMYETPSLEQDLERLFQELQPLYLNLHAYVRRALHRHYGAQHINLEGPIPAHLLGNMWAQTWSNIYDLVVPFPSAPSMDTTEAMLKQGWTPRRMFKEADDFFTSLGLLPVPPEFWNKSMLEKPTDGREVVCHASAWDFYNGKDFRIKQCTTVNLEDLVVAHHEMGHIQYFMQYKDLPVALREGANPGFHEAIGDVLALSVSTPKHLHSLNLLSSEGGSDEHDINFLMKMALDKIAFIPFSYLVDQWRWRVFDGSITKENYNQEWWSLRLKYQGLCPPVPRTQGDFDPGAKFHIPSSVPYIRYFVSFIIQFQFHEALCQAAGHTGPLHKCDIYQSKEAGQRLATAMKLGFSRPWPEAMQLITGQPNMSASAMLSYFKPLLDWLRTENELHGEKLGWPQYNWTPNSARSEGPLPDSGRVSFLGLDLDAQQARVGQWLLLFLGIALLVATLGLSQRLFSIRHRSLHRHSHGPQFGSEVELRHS
UniProt P12821, 643-1222 limits assumed: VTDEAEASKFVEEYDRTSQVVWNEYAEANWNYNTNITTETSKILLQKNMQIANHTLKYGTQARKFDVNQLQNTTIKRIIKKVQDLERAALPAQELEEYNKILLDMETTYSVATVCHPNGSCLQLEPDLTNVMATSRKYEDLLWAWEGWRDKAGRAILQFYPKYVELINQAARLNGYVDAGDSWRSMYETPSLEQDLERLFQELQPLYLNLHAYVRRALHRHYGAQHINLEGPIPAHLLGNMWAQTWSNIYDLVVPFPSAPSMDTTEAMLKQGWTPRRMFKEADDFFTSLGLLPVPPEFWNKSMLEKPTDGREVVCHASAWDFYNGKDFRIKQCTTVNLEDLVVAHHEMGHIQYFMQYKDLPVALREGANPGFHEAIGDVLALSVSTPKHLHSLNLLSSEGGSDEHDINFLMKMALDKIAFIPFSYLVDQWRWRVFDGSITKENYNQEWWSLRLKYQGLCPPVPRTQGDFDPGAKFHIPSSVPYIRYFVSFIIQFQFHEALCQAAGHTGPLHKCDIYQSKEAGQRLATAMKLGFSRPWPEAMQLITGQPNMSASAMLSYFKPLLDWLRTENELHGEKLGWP

Assays:
[1] = target: T1, Ndom (soluble form of the N‐domain of sACE) (Homo sapiens, UniProt P12821); test: Aβ(1–16) hydrolysis by Ndom, HPLC, Michaelis–Menten; format: biochemical; conditions: 50 mM Hepes pH 7.5, 100 mM NaCl, 10 μM ZnSO4, substrate 0 to 45 μM, 15 min, 37 °C, enzyme 0.013 pmol, n = 3
T1 construct: made in house; host or cells: CHO cells
Procedure: (§1) ACE and Aβ(1–16) (H‐DAEFRHDSGYEVHHQK‐OH) (Bachem AG) hydrolysis assays were performed in reaction tubes and transferred to HPLC vials for analysis using the Agilent 1260 Infinity HPLC. Mixtures were separated on a Poroshell 120 EC‐18 column with a 2.7 μm pore size. The reaction consists of 25 μL substrate incubated with 25 μL enzyme for 15 min at 37 °C and was stopped with the addition of 10 μL of 0.25% trifluoroacetic acid (TFA). The total reaction (60 μL) was cleared of contaminants on a spin column (GHP Nanosep® MF Centrifugal Device 0.45 μm pore size) and run on the HPLC. Kinetic parameters were determined through the fitting of initial rates to the Michaelis–Menten equation with GRAPHPAD PRISM software (v 4.01, GraphPad Prism®).
(§2) Enzyme reactions were initiated on the addition of 25 μL enzyme (at a final concentration within 10% hydrolysis of total substrate; see Table 1) to 25 μL Aβ(1–16) in Hepes buffer (50 mM Hepes pH 7.5, 100 mM NaCl, 10 μM ZnSO4 buffer), ranging in concentration from 0 to 45 μM. The reaction was incubated for 15 min at 37 °C and stopped with the addition of 10 μL 0.25% TFA to make up a total volume of 60 μL. The reactions were performed in triplicate and 50 μL injections were analysed via HPLC (Agilent Technologies) across a gradient of 0.1% TFA and 2% ACN in water to 0.1% TFA, 95% ACN. A calibration curve was set up to convert the product peak area to picomoles product formed, through the complete hydrolysis of the substrate with the N‐domain. The initial rates of reactions were generated by converting and plotting the resultant peak product area, and were used to assess enzyme activity. Kinetic constants were calculated using the Michaelis–Menten method using GRAPHPAD PRISM software (v 4.01, GraphPad Prism®).
(§3) Statistical analysis of the data was determined by Student's t test. Differences with P < 0.05 were considered statistically significant. Fractional error was calculated for the k cat/K m ratio with the following equation: ΔZ=ZΔa/a^2+Δb/b^2 where Z represents the mean k cat/K m and ΔZ represents the fractional error. The Δa represents the SEM of the mean k cat (a). Similarly, Δb represents the SEM of the mean K m (b).

[2] = target: T2, N‐sACE (Homo sapiens, UniProt P12821, H988K/H992K); test: Aβ(1–16) hydrolysis by N‐sACE, HPLC, Michaelis–Menten; format: biochemical
T2 construct: Both constructs have the complete signal, transmembrane and stalk region corresponding to full‐length sACE; made in house; host or cells: CHO cells; purified from cell lysate
Procedure: as §1, §2, §3

[3] = test system: ACE variants; test: Cleavage‐site analysis by MALDI‐TOF MS, 24 h digest of Aβ(1–16); format: biochemical, human
Procedure: To determine the bond at which the Aβ peptides were cleaved by the different ACE variants, each substrate was incubated under the stated assay conditions and the peptide products were purified for MALDI‐TOF MS analysis. For the Aβ(4–10)Q and Aβ(4–10)Y, peptides with m/z = 694.3 were identified (Table4). This corresponds to the N‐terminal o‐aminobenzoyl (Abz)‐FRHD peptide. Thus, both Aβ(4–10) peptides were endoproteolytically cleaved at the Asp7‐Ser8 bond. The Cdom and CC‐sACE cleavage sites were not analysed as there was negligible hydrolysis of the Aβ peptides by these ACE variants under kinetic assay conditions. Hydrolysis of Aβ(1–16) by all the ACE variants except Cdom yielded peptides with m/z ratios of 1698.6 (Ndom), 1698.7 (N‐sACE, C‐sACE, CC‐sACE) and 1698.8 (sACE) within kinetic assay parameters. These peptides correspond to the N terminus Aβ(1–14) (DAEFRHDSGYEVHH) with a calculated mass of 1698.7 (Table 4). […] To determine if the Aβ(1–16) is further degraded over time by all forms of ACE, 36.5 μM of Aβ(1–16) was incubated for 24 h (Table 5). […] The Aβ(1–12) product is probably hydrolysed faster by the Cdom, Ndom and wild‐type sACE. Overall, there appears to be no absolute domain preference for any specific P1 and P1′ residues, similar to the hydrolysis for 15 min.
Kinetic reaction digests, 24 h digests and undigested Aβ(1–16) samples were collected off the HPLC, dried down with the Savant SpeedyVac (ThermoScientific, USA) and then resuspended in 50% acetonitrile (ACN) prior to being sent for mass spectrometry. The Aβ(4–10)Q and Aβ(4–10)Y digested and undigested samples were cleaned over a C18 Zip Tip® (Millipore) and sent for mass spectrometry. The mass spectrometry was analysed at the Centre for Proteomic and Genomic Research (Cape Town, South Africa). Briefly, the collected peptides were spotted onto a 10 mg·mL^−1 α‐cyano‐4‐hydroxycinnamic acid matrix (Fluka, USA) in 80% ACN, 0.2% TFA for a final concentration of 5 mg·mL^−1 matrix in 40% ACN, 0.1% TFA, 10 mM NH4H2PO4. Mass spectrometry was performed with a 4800 MALDI‐TOF/TOF (Applied Biosytems) with all spectra recorded in positive reflector mode. Spectra were generated with 400 laser shots/spectrum at a laser intensity of 3800 (arbitrary units) with a grid voltage of 16 kV.

[4] = target: T3, C‐sACE (Homo sapiens, UniProt P12821, H390K/H394K); test: Aβ(1–16) hydrolysis by C‐sACE, HPLC, Michaelis–Menten; format: biochemical; conditions: 50 mM Hepes pH 7.5, 100 mM NaCl, 10 μM ZnSO4, substrate 0 to 45 μM, 15 min, 37 °C, enzyme 1.750 pmol, n = 3
T3 construct: Both constructs have the complete signal, transmembrane and stalk region corresponding to full‐length sACE; made in house; host or cells: CHO cells; purified from cell lysate
Procedure: as §1, §2, §3

[5] = target: T4, sACE (Homo sapiens, UniProt P12821); test: Interdomain cooperativity in hydrolysis of Aβ substrates; format: biochemical; conditions: two domains of sACE, truncated and full‐length constructs compared
T4 construct: made in house; host or cells: CHO cells; purified from cell lysate
Procedure: as §1
Enzyme reactions were initiated on the addition of 25 μL enzyme (at a final concentration within 10% hydrolysis of total substrate; see Table 1) to 25 μL Aβ(1–16) in Hepes buffer (50 mM Hepes pH 7.5, 100 mM NaCl, 10 μM ZnSO4 buffer), ranging in concentration from 0 to 45 μM. […] The reactions were performed in triplicate and 50 μL injections were analysed via HPLC (Agilent Technologies) across a gradient of 0.1% TFA and 2% ACN in water to 0.1% TFA, 95% ACN. […] Kinetic constants were calculated using the Michaelis–Menten method using GRAPHPAD PRISM software (v 4.01, GraphPad Prism®). […]

[6] = test system: ACE variants; test: Cleavage‐site analysis by MALDI‐TOF MS, kinetic assay conditions; format: biochemical, human; conditions: MALDI‐TOF MS of products within kinetic assay conditions; Aβ(1–16): all ACE variants except Cdom; Aβ(4–10) peptides: Cdom and CC‐sACE not analysed
Procedure: To determine the bond at which the Aβ peptides were cleaved by the different ACE variants, each substrate was incubated under the stated assay conditions and the peptide products were purified for MALDI‐TOF MS analysis. For the Aβ(4–10)Q and Aβ(4–10)Y, peptides with m/z = 694.3 were identified (Table4). This corresponds to the N‐terminal o‐aminobenzoyl (Abz)‐FRHD peptide. Thus, both Aβ(4–10) peptides were endoproteolytically cleaved at the Asp7‐Ser8 bond. The Cdom and CC‐sACE cleavage sites were not analysed as there was negligible hydrolysis of the Aβ peptides by these ACE variants under kinetic assay conditions. […] These peptides correspond to the N terminus Aβ(1–14) (DAEFRHDSGYEVHH) with a calculated mass of 1698.7 (Table 4). […]
Kinetic reaction digests, 24 h digests and undigested Aβ(1–16) samples were collected off the HPLC, dried down with the Savant SpeedyVac (ThermoScientific, USA) and then resuspended in 50% acetonitrile (ACN) prior to being sent for mass spectrometry. […] The mass spectrometry was analysed at the Centre for Proteomic and Genomic Research (Cape Town, South Africa). […] Mass spectrometry was performed with a 4800 MALDI‐TOF/TOF (Applied Biosytems) with all spectra recorded in positive reflector mode. […]

[7] = target: T5, Cdom (soluble form of the C‐domain of sACE) (Homo sapiens, UniProt P12821); test: Aβ(1–16) hydrolysis by Cdom, HPLC; format: biochemical; conditions: even after prolonged incubation times, Hepes pH 7.5, 37 °C
T5 construct: lacks the transmembrane region and unique 36 amino acid N terminus (and is therefore identical to the sACE C‐domain); made in house; host or cells: CHO cells
Procedure: as §1
(§4) Enzyme reactions were initiated on the addition of 25 μL enzyme (at a final concentration within 10% hydrolysis of total substrate; see Table 1) to 25 μL Aβ(1–16) in Hepes buffer (50 mM Hepes pH 7.5, 100 mM NaCl, 10 μM ZnSO4 buffer), ranging in concentration from 0 to 45 μM. […] The reactions were performed in triplicate and 50 μL injections were analysed via HPLC (Agilent Technologies) across a gradient of 0.1% TFA and 2% ACN in water to 0.1% TFA, 95% ACN. […] Kinetic constants were calculated using the Michaelis–Menten method using GRAPHPAD PRISM software (v 4.01, GraphPad Prism®).
(§5) Statistical analysis of the data was determined by Student's t test. […]

[8] = test system: CC‐sACE; test: Aβ(1–16) hydrolysis by CC‐sACE, HPLC; format: biochemical, human; conditions: Hepes pH 7.5, 37 °C, 15 min
Procedure: as §1, §4, §5

[9] = target: T4, sACE; test: Aβ(1–16) hydrolysis by sACE, HPLC, Michaelis–Menten; format: biochemical; conditions: 50 mM Hepes pH 7.5, 100 mM NaCl, 10 μM ZnSO4, substrate 0 to 45 μM, 15 min, 37 °C, enzyme 0.120 pmol, n = 3
Procedure: as §1, §2, §3

[10] = mean ± fractional error of the ratio
[11] = HPLC, 50 mM Hepes pH 7.5, 100 mM NaCl, 10 μM ZnSO4, substrate 0 to 45 μM, 15 min, 37 °C, enzyme 0.050 pmol, mean ± SEM, n = 3

H‐DAEFRHDSGYEVHHQK‐OH [Aβ(1–16), amyloid beta peptide 1–16 (Bachem AG; Sigma SCP0052 for crystallography)]
K m ([1]; mean ± SEM): 21.35 ± 0.21 µM | V max ([1]; mean ± SEM): 0.49 ± 0.02 | k cat ([1]; mean ± SEM): 39.30 ± 0.47 s⁻¹ | k cat/K m [1, 10]: 18.46 M^−1·s^−1 × 10^5 and 18.46 ± 0.72 M^−1·s^−1 × 10^5 | K m [2, 11]: 34.20 ± 5.90 µM | V max [2, 11]: 0.55 ± 0.08 | k cat [2, 11]: 11.03 ± 1.62 s⁻¹ | k cat/K m ([2]; HPLC, 50 mM Hepes pH 7.5, 100 mM NaCl, 10 μM ZnSO4, substrate 0 to 45 μM, 15 min, 37 °C, enzyme 0.050 pmol, mean ± fractional error of the ratio, n = 3): 3.21 ± 0.72 M^−1·s^−1 × 10^5 | k cat/K m for N‐sACE, fold lower than that for Ndom ([2]; N‐sACE versus Ndom, P < 0.05): 6 fold | Aβ(1–7) cleavage site ([3]; 36.5 μM Aβ(1–16)): found across constructs barring N‐sACE and CC‐sACE | C‐terminal product Aβ(12–16) ([3]; 36.5 μM Aβ(1–16)): detected in both Cdom and Ndom digests as well as in sACE and C‐sACE, but not N‐sACE or CC‐sACE | initial cleavage intermediate Aβ(1–14) ([3]; 36.5 μM Aβ(1–16)): present across all ACE constructs except for N‐sACE | hydrolysis at His6‐Asp7 ([3]; Aβ(1–16)): only seen after a 24 h incubation with C‐sACE | K m ([4]; mean ± SEM): 42.36 ± 9.57 µM | V max ([4]; mean ± SEM): 1.15 ± 0.14 | k cat ([4]; mean ± SEM): 0.67 ± 0.08 s⁻¹ | k cat/K m [4, 10]: 0.17 ± 0.04 M^−1·s^−1 × 10^5 | interdomain cooperativity [5]: negative | cleavage site (bond) [6]: His14‐Gln15 | hydrolysis by truncated Cdom [7]: not hydrolysed | hydrolysis by CC‐sACE [8]: the rate was too slow to generate accurate kinetic constants | K m ([9]; mean ± SEM): 35.20 ± 4.03 µM | V max ([9]; mean ± SEM): 1.00 ± 0.19 | k cat ([9]; mean ± SEM): 8.37 ± 0.90 s⁻¹ | k cat/K m [9, 10]: 2.36 ± 0.37 M^−1·s^−1 × 10^5

Values joined by “and” are separate entries in the source; they are usually repeats but may differ in a detail not shown here. Identical values can stand only once.
